Test results published in US20250206802A1.

Protein sequences, listed by entry. Tags and fused reporters are not part of them. Chains listed by the source or under a name are the forms on record and can include a tag or linker. Residues count along the entry.
UniProt P01137, 30-390 limits assumed, form in doubt: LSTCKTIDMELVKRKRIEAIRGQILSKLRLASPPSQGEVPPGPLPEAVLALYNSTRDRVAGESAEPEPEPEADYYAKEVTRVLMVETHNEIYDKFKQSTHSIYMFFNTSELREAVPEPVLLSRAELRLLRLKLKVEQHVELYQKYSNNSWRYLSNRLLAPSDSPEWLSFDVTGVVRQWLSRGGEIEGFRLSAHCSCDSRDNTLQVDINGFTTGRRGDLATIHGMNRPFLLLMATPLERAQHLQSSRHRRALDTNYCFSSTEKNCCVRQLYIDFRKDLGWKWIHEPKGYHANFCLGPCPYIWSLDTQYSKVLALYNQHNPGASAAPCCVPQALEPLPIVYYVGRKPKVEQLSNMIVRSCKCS

Target: purified pro-TGF-β1 (Homo sapiens (Human)) (UniProt P01137)
Experiment: Biacore (SPR)

With “αVβ6 headpiece (soluble, disulfide-linked: αv headpiece residues 1-594 with M400C and β6 headpiece residues 1-474 with I270C) (from UniProt P06756 31-625; P18564 18-491) (receptor)” the Kd was 8.2 nM.
